Bounds are passed on as bounds.

For one compound, Ratio IC50/EC50 results are on record in ChEMBL document CHEMBL4304783, “Discovery of a Novel Selective Dual Peroxisome Proliferator-Activated Receptor α/δ Agonist for the Treatment of Primary Biliary Cirrhosis” (ACS Med Chem Lett, 2019).

Test [1] is filed under the species Homo sapiens. In words: Selectivity index, ratio of IC50 of human recombinant GST-tagged FXR LBD (193-472 residues) expressed in baculovirus infected insect cells to EC50 of PPARalpha (unknown origin).
Test [2] is filed under the species Homo sapiens. The test can be described thus: Selectivity index, ratio of IC50 of human recombinant GST-tagged FXR LBD (193-472 residues) expressed in baculovirus infected insect cells to EC50 of PPARdelta (unknown origin).

For `Cc1cc(Cc2cc(-c3ccc(Br)cc3)on2)cc(C)c1OC(C)(C)C(=O)O`, the Ratio IC50/EC50 in the test filed under Homo sapiens [1] and in the test filed under Homo sapiens [2] was above 6000 in each case.
